Reference: ChEMBL document CHEMBL1141995, “N-i-Propoxy-N-biphenylsulfonylaminobutylhydroxamic acids as potent and selective inhibitors of MMP-2 and MT1-MMP” (Bioorg Med Chem Lett, 2005)

Molecular target: T1, Interstitial collagenase (Homo sapiens, UniProt P03956)
T1 sequence (P03956 whole entry): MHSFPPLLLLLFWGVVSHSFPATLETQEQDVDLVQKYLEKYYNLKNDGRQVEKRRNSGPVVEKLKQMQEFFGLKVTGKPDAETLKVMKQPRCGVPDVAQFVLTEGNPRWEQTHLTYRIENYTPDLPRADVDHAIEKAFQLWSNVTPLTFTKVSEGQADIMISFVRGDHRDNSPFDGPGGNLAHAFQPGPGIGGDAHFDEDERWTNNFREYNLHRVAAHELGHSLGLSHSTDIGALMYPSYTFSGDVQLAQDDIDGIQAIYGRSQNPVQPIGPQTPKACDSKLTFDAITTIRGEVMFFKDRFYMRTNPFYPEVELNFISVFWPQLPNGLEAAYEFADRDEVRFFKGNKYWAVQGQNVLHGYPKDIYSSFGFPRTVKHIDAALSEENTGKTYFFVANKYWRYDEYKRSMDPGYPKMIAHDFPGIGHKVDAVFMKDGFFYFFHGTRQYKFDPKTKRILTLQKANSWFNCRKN
Experiment: Inhibition of human matrix metalloprotease-1

IC50: 55 nM
Structure (SMILES): COc1ccc(S(=O)(=O)N(Cc2cccnc2)[C@@H](C(=O)NO)C(C)C)cc1 [CGS-27023A]
